Assay results reported in patent US5100914A, “Arylalkoxycoumarins” (BASF Aktiengesellschaft, priority 1988, dated 1992).

Protein sequences, listed by entry. Tags and fused reporters are not part of them.
UniProt P19643, whole entry: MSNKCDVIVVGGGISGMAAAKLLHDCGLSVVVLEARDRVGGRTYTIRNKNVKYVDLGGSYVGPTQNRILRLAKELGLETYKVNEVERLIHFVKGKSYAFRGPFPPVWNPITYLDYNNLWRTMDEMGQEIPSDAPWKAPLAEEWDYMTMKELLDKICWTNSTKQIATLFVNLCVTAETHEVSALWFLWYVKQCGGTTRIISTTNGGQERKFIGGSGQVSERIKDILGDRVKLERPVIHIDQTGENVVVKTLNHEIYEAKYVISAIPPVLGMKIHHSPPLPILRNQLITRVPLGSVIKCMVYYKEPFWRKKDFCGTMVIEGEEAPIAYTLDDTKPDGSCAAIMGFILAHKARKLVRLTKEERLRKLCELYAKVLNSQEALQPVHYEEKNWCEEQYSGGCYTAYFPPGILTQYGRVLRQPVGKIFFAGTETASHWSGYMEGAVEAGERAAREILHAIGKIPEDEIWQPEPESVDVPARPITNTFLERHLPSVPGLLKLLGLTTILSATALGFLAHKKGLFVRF
UniProt P21396, whole entry: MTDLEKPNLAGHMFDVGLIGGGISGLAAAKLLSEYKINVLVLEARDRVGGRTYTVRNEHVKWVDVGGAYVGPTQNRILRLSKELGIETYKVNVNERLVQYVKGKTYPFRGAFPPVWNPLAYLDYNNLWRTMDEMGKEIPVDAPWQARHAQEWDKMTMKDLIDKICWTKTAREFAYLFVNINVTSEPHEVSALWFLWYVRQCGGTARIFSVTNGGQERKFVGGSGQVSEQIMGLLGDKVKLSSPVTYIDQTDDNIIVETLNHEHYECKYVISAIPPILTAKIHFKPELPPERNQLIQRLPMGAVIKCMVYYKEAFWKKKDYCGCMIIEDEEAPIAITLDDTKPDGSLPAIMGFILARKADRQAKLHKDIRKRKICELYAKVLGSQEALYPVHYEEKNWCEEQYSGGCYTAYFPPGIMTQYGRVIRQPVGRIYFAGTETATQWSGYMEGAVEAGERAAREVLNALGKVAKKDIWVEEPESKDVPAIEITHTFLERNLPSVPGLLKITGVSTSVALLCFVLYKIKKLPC

Legend:
[1] = target: T1, MAO B (Rattus norvegicus, UniProt P19643); experiment: determination of monoaminooxidase B inhibition in dilute rat brain homogenate; assay type: biochemical; conditions: 14C-phenylethylamine or 14C-tryptamine 0.4 μmol/l, 20 min, 37° C., logit-log regression, read-out: IC50 MAO B (mean inhibitory concentration)
T1 construct: carried out in dilute rat brain homogenate; from tissue; host or cells: rat brain homogenate

[2] = target: T2, MAO A (Rattus norvegicus, UniProt P21396); experiment: determination of monoaminooxidase A inhibition in dilute rat brain homogenate; assay type: biochemical
T2 construct: carried out in dilute rat brain homogenate; from tissue; host or cells: rat brain homogenate

- IC50 [1]: 22 nM
- IC50 [2]: > 10 µM
SMILES: NCCNC(=O)c1ccc(Cl)cn1 [Ro 19-6327, reference compound]
